Molecules are shown by their SMILES.

By UniProt entry, the sequences of proteins in these tests, tags left out. Where a name states a change or a piece, a line headed by the entry shows the natural chain unless it says otherwise.
UniProt Q06187: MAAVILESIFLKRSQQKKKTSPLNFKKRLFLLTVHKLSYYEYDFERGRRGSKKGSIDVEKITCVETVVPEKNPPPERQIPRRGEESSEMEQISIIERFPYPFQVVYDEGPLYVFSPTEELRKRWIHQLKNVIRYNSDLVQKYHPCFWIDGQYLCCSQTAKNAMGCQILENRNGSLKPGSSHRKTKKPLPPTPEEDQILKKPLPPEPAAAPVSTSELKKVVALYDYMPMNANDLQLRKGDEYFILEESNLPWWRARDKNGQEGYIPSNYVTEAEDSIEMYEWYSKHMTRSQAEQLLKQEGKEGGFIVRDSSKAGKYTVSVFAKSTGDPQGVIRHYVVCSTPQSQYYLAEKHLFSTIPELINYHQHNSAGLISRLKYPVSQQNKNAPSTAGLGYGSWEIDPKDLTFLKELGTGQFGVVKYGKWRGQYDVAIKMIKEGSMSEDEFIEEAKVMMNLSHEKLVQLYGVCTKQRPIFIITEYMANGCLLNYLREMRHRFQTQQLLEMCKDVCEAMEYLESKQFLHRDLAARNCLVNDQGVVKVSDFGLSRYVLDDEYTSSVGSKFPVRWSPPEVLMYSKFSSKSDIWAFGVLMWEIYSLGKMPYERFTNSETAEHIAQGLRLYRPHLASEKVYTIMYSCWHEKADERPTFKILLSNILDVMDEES
UniProt P23458: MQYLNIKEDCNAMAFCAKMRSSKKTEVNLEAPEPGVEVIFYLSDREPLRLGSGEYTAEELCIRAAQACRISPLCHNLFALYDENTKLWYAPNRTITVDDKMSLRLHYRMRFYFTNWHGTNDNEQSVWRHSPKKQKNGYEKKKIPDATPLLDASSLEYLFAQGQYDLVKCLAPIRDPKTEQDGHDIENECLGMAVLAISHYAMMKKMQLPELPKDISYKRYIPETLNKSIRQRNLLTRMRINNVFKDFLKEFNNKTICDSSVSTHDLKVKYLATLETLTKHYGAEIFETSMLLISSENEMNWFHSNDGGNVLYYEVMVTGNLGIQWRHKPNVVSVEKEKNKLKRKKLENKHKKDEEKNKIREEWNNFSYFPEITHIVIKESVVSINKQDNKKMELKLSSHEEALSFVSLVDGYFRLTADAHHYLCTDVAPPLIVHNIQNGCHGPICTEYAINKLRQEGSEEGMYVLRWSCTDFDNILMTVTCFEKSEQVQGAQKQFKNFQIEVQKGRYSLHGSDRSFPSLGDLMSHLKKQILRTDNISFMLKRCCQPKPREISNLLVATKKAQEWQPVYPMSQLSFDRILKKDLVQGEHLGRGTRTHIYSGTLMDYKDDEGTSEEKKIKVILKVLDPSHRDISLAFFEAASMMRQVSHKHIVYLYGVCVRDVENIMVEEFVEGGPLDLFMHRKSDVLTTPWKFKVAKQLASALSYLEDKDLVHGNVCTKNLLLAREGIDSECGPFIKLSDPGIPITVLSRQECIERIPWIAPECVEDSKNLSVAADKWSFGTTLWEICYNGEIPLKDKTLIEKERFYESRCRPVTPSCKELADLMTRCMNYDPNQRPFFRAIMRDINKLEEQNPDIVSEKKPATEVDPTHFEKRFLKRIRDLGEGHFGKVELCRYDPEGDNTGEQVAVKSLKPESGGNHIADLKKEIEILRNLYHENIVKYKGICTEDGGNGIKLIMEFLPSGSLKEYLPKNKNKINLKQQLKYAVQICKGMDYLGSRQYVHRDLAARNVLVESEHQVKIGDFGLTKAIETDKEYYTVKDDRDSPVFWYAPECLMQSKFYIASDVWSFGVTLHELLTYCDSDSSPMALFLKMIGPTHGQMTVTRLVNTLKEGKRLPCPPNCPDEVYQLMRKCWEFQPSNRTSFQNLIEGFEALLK
UniProt Q96GD4, whole entry: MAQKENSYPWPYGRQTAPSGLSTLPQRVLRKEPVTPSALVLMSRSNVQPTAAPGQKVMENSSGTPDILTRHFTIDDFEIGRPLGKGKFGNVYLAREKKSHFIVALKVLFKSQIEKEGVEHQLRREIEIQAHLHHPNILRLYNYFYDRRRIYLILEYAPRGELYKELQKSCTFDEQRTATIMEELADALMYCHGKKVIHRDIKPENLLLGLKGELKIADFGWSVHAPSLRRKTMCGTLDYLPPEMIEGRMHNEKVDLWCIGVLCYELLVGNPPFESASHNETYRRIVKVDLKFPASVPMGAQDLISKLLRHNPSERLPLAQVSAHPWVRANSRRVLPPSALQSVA
UniProt P54646: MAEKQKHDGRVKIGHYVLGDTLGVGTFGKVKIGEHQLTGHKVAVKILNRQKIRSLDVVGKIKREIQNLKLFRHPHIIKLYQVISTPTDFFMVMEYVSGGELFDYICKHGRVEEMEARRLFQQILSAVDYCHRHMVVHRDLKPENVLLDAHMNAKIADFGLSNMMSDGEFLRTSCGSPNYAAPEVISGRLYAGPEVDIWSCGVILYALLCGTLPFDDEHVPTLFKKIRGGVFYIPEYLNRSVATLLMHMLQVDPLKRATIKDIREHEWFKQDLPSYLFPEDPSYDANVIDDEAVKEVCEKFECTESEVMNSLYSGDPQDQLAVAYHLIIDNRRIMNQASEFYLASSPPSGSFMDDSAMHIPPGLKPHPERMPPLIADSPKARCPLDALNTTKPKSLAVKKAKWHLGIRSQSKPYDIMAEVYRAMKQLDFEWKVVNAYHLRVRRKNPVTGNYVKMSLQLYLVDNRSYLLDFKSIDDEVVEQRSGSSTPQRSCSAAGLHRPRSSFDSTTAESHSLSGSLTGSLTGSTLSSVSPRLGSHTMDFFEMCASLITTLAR
UniProt P54619: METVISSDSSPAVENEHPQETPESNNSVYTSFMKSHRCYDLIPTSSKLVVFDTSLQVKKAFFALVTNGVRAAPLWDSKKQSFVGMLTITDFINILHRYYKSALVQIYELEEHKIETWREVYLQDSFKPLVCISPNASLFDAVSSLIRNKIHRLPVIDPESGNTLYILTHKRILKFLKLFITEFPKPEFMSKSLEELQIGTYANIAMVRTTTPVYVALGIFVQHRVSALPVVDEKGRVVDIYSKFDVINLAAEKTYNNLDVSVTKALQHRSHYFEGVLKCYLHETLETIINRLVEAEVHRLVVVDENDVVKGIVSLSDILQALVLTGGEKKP
UniProt Q9Y478: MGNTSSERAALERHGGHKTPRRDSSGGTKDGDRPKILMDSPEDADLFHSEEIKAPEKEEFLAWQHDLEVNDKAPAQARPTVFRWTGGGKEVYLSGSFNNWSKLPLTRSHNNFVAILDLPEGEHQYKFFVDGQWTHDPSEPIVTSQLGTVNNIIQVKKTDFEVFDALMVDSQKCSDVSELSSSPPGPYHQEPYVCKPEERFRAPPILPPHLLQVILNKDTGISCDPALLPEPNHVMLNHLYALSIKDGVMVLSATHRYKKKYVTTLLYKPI
UniProt P07948: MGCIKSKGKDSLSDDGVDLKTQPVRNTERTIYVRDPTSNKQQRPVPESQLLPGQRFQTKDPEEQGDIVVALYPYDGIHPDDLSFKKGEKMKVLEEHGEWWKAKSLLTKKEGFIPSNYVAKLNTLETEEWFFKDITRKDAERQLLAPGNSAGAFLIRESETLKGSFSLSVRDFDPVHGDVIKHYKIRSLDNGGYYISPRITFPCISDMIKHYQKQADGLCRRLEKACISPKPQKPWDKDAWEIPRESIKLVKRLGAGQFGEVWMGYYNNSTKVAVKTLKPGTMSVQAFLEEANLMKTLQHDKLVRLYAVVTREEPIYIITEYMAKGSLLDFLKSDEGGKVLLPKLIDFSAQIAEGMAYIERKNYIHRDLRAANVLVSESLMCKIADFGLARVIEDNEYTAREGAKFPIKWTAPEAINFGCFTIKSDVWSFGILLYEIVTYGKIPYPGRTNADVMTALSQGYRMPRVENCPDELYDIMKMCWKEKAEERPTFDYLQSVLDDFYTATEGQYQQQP
UniProt P06239: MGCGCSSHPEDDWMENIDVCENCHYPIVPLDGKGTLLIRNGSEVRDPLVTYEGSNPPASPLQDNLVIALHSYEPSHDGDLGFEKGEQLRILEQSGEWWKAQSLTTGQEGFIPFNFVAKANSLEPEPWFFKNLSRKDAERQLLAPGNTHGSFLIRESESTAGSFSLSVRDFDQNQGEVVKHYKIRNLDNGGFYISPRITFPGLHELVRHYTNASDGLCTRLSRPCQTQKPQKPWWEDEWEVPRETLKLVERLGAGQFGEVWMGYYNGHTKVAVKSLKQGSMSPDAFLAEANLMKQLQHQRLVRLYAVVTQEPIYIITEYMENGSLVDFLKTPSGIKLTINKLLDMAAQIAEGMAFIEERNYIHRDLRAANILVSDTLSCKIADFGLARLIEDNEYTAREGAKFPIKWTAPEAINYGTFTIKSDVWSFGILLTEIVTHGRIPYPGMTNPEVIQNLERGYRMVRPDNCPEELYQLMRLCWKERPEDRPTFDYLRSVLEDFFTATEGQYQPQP
UniProt P36888, whole entry: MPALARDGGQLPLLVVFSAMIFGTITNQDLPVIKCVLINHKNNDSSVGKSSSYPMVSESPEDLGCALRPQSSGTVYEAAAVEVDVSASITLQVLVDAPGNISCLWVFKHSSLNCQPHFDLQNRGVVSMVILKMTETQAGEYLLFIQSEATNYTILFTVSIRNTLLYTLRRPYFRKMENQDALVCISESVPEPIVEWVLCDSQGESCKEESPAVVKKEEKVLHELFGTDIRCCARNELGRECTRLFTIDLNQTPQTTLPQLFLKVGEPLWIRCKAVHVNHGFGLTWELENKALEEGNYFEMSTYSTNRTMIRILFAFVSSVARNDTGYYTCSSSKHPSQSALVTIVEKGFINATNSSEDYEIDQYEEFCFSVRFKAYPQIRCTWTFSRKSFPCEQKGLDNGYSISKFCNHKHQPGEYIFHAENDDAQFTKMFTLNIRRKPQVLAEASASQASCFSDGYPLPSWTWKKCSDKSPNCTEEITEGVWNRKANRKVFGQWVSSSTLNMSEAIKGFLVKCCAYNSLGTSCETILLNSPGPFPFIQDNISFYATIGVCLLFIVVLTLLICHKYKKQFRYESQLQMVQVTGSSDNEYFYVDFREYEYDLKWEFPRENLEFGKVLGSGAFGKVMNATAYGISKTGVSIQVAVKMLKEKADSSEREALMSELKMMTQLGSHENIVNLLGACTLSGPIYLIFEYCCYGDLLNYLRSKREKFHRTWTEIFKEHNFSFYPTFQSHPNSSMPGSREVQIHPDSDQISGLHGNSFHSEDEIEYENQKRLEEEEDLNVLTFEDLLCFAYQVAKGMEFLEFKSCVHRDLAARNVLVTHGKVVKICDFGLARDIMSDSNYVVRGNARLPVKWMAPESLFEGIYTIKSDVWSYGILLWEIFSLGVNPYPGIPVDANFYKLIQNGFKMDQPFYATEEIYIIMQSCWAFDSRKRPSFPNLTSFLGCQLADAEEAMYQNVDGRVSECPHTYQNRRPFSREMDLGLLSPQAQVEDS
UniProt Q9NWZ3, whole entry: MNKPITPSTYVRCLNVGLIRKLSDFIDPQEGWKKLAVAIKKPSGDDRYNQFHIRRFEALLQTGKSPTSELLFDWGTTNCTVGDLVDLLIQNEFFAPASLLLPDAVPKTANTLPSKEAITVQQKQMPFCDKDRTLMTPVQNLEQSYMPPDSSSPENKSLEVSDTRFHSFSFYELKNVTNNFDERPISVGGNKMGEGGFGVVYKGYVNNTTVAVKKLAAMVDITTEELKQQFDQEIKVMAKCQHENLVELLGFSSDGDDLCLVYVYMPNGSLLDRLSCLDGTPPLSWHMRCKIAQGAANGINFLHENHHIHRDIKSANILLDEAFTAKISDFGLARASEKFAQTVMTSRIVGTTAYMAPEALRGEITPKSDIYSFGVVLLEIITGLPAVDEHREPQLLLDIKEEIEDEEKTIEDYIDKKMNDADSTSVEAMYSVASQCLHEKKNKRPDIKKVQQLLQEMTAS

For test [1], the target named is T1, Serine/threonine-protein kinase 17B (Homo sapiens) (UniProt O94768).
T1 sequence (whole entry): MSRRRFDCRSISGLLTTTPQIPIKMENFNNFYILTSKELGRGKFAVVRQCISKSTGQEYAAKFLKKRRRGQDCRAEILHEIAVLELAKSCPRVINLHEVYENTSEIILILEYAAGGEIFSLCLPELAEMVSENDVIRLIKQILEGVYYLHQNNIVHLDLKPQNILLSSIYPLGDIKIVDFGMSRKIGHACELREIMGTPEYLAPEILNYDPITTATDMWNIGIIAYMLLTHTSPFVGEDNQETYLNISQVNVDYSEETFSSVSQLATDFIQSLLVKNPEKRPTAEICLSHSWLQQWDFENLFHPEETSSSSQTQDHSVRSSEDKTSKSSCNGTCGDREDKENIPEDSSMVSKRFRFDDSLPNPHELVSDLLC
The experiment in a line: Inhibition of human DRAK2 at 10 uM relative to control.

The target of test [2] is Tyrosine-protein kinase BTK (Homo sapiens, UniProt Q06187). The experiment in a line: Inhibition of human BTK at 10 uM relative to control.
Test [3] has as its target Tyrosine-protein kinase JAK1 (Homo sapiens, UniProt P23458). Description: Inhibition of human JAK1 at 10 uM relative to control.
The target in test [4] is Cyclin-dependent kinase 2 (Homo sapiens, UniProt P24941). The experiment in a line: Inhibition of human CDK2 at 10 uM relative to control.
The target of a further test is Aurora kinase B (Homo sapiens, UniProt Q96GD4). The experiment in a line: Inhibition of human Aurora B at 10 uM relative to control.
Test [5] has as its target AMPK alpha2/beta1/gamma1 (Homo sapiens) (UniProt P54646+P54619+Q9Y478). Description: Inhibition of human AMPK alpha2/beta1/gamma1 at 10 uM relative to control. It counts as protein-complex assay.
Test [6] has as its target T2, Serine/threonine-protein kinase BRSK2 (Homo sapiens) (UniProt Q8IWQ3).
T2 sequence (whole entry): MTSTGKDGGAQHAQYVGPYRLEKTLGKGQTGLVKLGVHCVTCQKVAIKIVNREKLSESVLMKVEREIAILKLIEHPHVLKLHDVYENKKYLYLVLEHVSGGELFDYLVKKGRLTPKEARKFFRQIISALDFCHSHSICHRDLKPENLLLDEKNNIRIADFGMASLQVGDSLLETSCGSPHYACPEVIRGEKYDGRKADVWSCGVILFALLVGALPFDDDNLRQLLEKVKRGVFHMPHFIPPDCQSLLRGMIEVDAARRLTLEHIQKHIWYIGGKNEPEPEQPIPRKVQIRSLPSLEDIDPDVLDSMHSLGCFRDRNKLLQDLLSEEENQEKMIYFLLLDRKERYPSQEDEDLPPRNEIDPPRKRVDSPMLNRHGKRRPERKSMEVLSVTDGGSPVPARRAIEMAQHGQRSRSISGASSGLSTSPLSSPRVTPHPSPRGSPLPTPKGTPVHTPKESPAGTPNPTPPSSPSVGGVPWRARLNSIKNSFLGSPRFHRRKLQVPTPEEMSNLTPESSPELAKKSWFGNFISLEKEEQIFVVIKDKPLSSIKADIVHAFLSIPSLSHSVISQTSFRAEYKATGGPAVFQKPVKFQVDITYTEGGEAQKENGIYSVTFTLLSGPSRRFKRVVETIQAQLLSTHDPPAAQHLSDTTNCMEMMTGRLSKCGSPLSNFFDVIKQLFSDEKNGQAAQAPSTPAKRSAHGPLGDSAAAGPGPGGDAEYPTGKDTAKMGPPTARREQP
Description: Inhibition of human BRSK2 at 10 uM relative to control.

In test [7] the target is Serine/threonine-protein kinase mTOR (Homo sapiens, UniProt P42345). The experiment in a line: Inhibition of human mTOR at 10 uM relative to control.
Test [8] has as its target Tyrosine-protein kinase Lyn (Homo sapiens, UniProt P07948). The experiment in a line: Inhibition of human LYN at 10 uM relative to control.
The target of test [9] is Tyrosine-protein kinase Lck (Homo sapiens, UniProt P06239). Description: Inhibition of human LCK at 10 uM relative to control.
For test [10], the target named is Receptor-type tyrosine-protein kinase FLT3 (Homo sapiens, UniProt P36888). Description: Inhibition of human FLT3 at 10 uM relative to control.
The target in test [11] is Interleukin-1 receptor-associated kinase 4 (Homo sapiens, UniProt Q9NWZ3). The experiment in a line: Inhibition of human IRAK4 at 10 uM relative to control.
In test [12] the target is T3, NUAK family SNF1-like kinase 1 (Homo sapiens) (UniProt O60285).
T3 sequence (whole entry): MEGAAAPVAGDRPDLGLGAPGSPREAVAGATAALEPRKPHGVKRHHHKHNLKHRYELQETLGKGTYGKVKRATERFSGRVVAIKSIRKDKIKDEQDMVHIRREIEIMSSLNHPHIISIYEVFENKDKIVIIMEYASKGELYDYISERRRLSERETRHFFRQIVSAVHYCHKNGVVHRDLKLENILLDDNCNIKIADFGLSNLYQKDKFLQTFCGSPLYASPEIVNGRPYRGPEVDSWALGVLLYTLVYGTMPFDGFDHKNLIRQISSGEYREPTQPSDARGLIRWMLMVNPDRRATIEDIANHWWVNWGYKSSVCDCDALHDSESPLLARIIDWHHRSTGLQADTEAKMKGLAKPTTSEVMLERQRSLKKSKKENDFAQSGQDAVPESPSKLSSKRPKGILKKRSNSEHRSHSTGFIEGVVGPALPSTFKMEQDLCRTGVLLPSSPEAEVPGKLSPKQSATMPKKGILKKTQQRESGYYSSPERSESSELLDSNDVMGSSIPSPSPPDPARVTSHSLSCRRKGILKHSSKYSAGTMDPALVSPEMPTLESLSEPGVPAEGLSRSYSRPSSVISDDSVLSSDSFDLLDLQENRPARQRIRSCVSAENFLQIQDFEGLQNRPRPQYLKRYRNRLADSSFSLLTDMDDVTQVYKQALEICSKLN
Description: Inhibition of human ARK5 at 10 uM relative to control.

The inhibition is how much of the control response was suppressed. A higher inhibition goes with strong suppression. `C[C@@H]1COCCN1c1nc(-c2ccnc3[nH]ccc23)nc2c1ccn2S(C)(=O)=O`: the inhibition in test [1] was determined as 5.84%; in test [2] it was 33.6%; in [3], 15.2%; in test [4], 13.3%; at Aurora kinase B, 19.5%; in test [5] it was 11.1%. Further, the inhibition in test [6] was determined as 23.5%; in test [7] it was 97.4%; in test [8], 7.02%; in [9], 72.4%; in test [10] it was 5.51%; in test [11] it was 20.7%. Also, the inhibition in test [12] was determined as 82.5%.

These data come from ChEMBL document CHEMBL5523766 (J Med Chem, 2024).
